Assay results from patent US5821363A, “Antineoplastic use and pharmaceutical compositions containing them” (priority 1996, dated 1998).

System: KB-V1
Experiment: killing of multidrug resistant KB-V1 cells
Assay type: cell-based

Structure (SMILES): COCO[C@H]1C[C@H]2OC[C@@]2(OC(C)=O)[C@H]2[C@H](OC(=O)c3ccccc3)[C@]3(O)CC(OC(=O)[C@H](O)[C@@H](NC(=O)NC(C)(C)C)c4ccccc4)=C(C)[C@H]([C@@H](OC(C)=O)C(=O)[C@]12C)C3(C)C [Compound 67, 7-(O-methoxymethyl)-13-(N-t-butylaminocarbonyl-β-phenylisoserinyl)-Δ^12,13-iso-baccatin III]
- Ratio: KBV-1/KB-3-1 (ratio of IC50 KB-V1 to IC50 KB-3-1): 570000
- IC50 (read-out: KB-V1 (IC50; nM), KB-V1 multidrug resistant cells, Table III): 140 nM
